Reference: article PMC4180945 (Tetrahedron, 2014)

Chains of the proteins cited; added tags and fusions are not shown. Residues count along the entry.
UniProt P98170, 241-356 limits assumed: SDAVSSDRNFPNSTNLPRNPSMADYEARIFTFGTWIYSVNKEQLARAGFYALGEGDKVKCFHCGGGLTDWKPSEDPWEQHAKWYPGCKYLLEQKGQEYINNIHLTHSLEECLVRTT
UniProt P02769, 25-607: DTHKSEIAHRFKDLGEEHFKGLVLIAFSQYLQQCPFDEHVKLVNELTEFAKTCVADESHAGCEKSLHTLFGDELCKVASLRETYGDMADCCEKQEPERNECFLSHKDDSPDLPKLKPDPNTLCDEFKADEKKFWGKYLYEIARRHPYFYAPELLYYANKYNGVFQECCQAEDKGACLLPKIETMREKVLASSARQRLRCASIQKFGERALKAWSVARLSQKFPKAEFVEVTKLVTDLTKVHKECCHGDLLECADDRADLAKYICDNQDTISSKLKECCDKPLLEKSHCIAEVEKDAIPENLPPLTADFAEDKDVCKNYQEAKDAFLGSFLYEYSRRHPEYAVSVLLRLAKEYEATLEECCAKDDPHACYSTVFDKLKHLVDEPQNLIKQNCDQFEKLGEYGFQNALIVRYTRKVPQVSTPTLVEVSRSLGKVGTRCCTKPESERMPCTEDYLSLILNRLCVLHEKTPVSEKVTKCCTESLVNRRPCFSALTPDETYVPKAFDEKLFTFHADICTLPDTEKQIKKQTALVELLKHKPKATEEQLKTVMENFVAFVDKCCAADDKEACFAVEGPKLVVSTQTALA

Legend:
[1] = target: T1, GST-SHD SH2 domain fusion protein (Homo sapiens, UniProt Q96IW2); assay: Selectivity binding to arbitrarily selected protein: GST-SHD SH2; details: read-out: KD for GST-SHD SH2
T1 sequence (Q96IW2 240-335 limits assumed): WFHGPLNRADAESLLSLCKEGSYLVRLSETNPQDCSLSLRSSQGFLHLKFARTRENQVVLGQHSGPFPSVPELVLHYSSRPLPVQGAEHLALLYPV

[2] = target: maltose-binding protein-XIAP BIR3 domain fusion (MBP-BIR3) (Homo sapiens, UniProt P98170); assay: Selectivity binding to arbitrarily selected protein: MBP-BIR3; details: read-out: KD for MBP-BIR3
[3] = target: bovine serum albumin (BSA) (Bos taurus, UniProt P02769); assay: Selectivity binding to arbitrarily selected protein: BSA

Measured: Kd

Trp-phe-Asp-Lys-phe-asn-His-Dap [Peptide 38]
23 to 57 µM: all assays above
